This is a selection; strong and weak results do not stand in their true shares. Active and inactive are the calls of the source. Rule as the data show it: active = inhibition above about 32%; inactive = the rest.
Assay: TEAD-YAP interaction inhibition, primary screen, TEAD-YAP interaction inhibitor project, luminescence, HEK-TIYL cells (AID 1259422);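 also: 0% = median of test compound wells and 100% = reference inhibitor wells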
Conditions: TEAD-Gal4/YAP UAS-luciferase luminescence, at 9.12 µM, stronger effect = higher value
With `CC(=O)c1cccc(NC(=O)N(Cc2ccco2)C2CCN(CCc3ccccn3)CC2)c1` the inhibition was inactive: -2.35%. In the case of `O=C(Oc1ccc([N+](=O)[O-])cc1[N+](=O)[O-])c1cc([N+](=O)[O-])cc([N+](=O)[O-])c1`, the inhibition is reported as inactive: 2.43%. With `O=[N+]([O-])c1cccc(P(=O)(Nc2ccccn2)c2cccc([N+](=O)[O-])c2)c1` the inhibition was inactive: 13.7%. For `CC1(C)Nc2ccccc2OP1(=O)c1ccccc1` (stereo not drawn), the inhibition was inactive: 0.41%. For `Cc1ccnc(NP2(=O)C=C(c3ccccc3)OC(c3ccccc3)=C2)c1`, the inhibition was inactive: 10.3%. For `CCOC(=O)NC(Sc1cc(C)ncn1)C(Cl)(Cl)Cl` (stereo not drawn), the inhibition was inactive: 1.62%. For `O=[N+]([O-])c1ccc(Nc2ccc([N+](=O)[O-])cc2[N+](=O)[O-])c(O)c1`, the inhibition was inactive: 10.7%. For `CN(C(=O)Cc1ccccc1)[C@@H]1CC[C@]2(CCCO2)C[C@H]1N1CCCC1`, the inhibition was inactive: 2.23%. With `Cc1ncc(-c2ccccc2)c2ccccc12` the inhibition was inactive: -1.03%. In the case of `O=C(COC(=O)C(O)(c1ccccc1)c1ccccc1)NC(=O)NCc1ccccc1`, the inhibition is reported as inactive: -6.19%. For `Cc1ccc(NC2=NCC(CBr)S2)cc1` (stereo not drawn), the inhibition was inactive: -6.12%. With `O=[N+]([O-])c1ccc(N/N=C/c2ccc(Cl)c([N+](=O)[O-])c2)c([N+](=O)[O-])c1` the inhibition was inactive: 1.76%. For `NC(=O)c1nsnc1NCCCl`, the inhibition was inactive: 3.1%. With `CCOc1ccc2nc(NCCCl)[nH]c2c1` the inhibition was inactive: -26.2%. For `CC(=O)NC(SC1=NCCS1)C(Cl)(Cl)Cl` (stereo not drawn), the inhibition was inactive: -2.47%. For `O=P(Nc1ccccn1)(c1ccccc1)c1ccccc1`, the inhibition was inactive: -0.9%. For `Cn1cnc([N+](=O)[O-])c1SCCCl`, the inhibition was inactive: -6.58%. In the case of `NC(=O)COC(=O)C1(O)c2ccccc2-c2ccccc21`, the inhibition is reported as inactive: 8.07%. In the case of `CCOP1(=O)Oc2ccccc2OC1c1ccccc1` (stereo not drawn), the inhibition is reported as inactive: -6.8%. In the case of `O=P(Nc1nccs1)(Oc1ccccc1)Oc1ccccc1`, the inhibition is reported as inactive: 7.25%. In the case of `O=P(Nc1nccs1)(c1ccccc1)c1nc2ccccc2s1` (stereo not drawn), the inhibition is reported as inactive: -4.66%. With `O=C(c1cccnc1)N(Cc1cccnc1)C1CCN(CCc2cccs2)CC1` the inhibition was inactive: -6.79%. For `CCC(C(=O)OC1CN2CCC1CC2)c1ccccc1` (stereo not drawn), the inhibition was inactive: 2.48%. In the case of `CCOP(=O)(Nc1cccc2ccccc12)OCC`, the inhibition is reported as inactive: -0.22%. In the case of `O=C(N/N=C\c1ccc([N+](=O)[O-])cc1)c1cc([N+](=O)[O-])cc([N+](=O)[O-])c1O`, the inhibition is reported as inactive: -0.67%. In the case of `CCOC(=O)C(C(=O)OCC)C(O)c1c([N+](=O)[O-])cc([N+](=O)[O-])cc1[N+](=O)[O-]` (stereo not drawn), the inhibition is reported as inactive: -4.11%. For `O=C(Nc1cccc([N+](=O)[O-])c1)c1ccc([N+](=O)[O-])cc1[N+](=O)[O-]`, the inhibition was inactive: -8.18%. For `Cc1ccc(NCCc2c([N+](=O)[O-])cc([N+](=O)[O-])cc2[N+](=O)[O-])cc1`, the inhibition was inactive: 6.53%. In the case of `BrCC1CN=C(Nc2ccccc2)S1` (stereo not drawn), the inhibition is reported as inactive: -10.9%. For `COc1cc(-n2cnnn2)ccc1-n1cnnn1`, the inhibition was inactive: 4.2%. With `Cc1cccc(OCC(=O)OC2CN3CCC2CC3)c1` (stereo not drawn) the inhibition was inactive: 6.7%. For `CC(C)OP(=O)(OC(C)C)C(=O)c1ccco1`, the inhibition was inactive: -31.8%. For `Cc1cc(Br)c(Nc2c([N+](=O)[O-])cc([N+](=O)[O-])c3nonc23)cc1[N+](=O)[O-]`, the inhibition was inactive: -6.06%. With `COP(=O)(Nc1ccc(C)cc1)OC` the inhibition was inactive: -5.24%. With `Cc1cc(NC(=O)NP(=O)(O)O)n(-c2ccccc2)n1` the inhibition was inactive: -1.92%. In the case of `CCOP1(=O)N=C(c2ccc(Br)cc2)NC(=O)N1` (stereo not drawn), the inhibition is reported as inactive: -14.4%. With `CN(C(=O)Cc1ccc(Cl)c(Cl)c1)[C@@H]1CC[C@]2(CCCO2)C[C@H]1N1CCCC1` the inhibition was inactive: -3.29%. With `COc1cc([N+](=O)[O-])cc([N+](=O)[O-])c1N/N=C(/C)c1cccc([N+](=O)[O-])c1` the inhibition was inactive: 3.78%. In the case of `CC(Cl)(CSSCC(C)(Cl)C(=O)O)C(=O)O` (stereo not drawn), the inhibition is reported as inactive: -0.88%. For `COC(=O)c1nsnc1NCCCl`, the inhibition was inactive: 9.66%. For `CC1(CBr)Cn2c(nc3ccccc3c2=O)S1` (stereo not drawn), the inhibition was inactive: 9.73%. In the case of `Cc1ccc(S(=O)(=O)NCCCCC(NC(=O)OC(C)(C)C)C(=O)O)cc1` (stereo not drawn), the inhibition is reported as inactive: 3.61%. With `CCCCC(NC(=O)OC(C)(C)C)C(=O)O` (stereo not drawn) the inhibition was inactive: -0.02%. For `O=C(Nc1ccc(Br)cc1[N+](=O)[O-])c1cc([N+](=O)[O-])cc([N+](=O)[O-])c1`, the inhibition was inactive: 11%. In the case of `COC(=O)c1cc([N+](=O)[O-])c(Nc2ccc([N+](=O)[O-])cc2Br)c([N+](=O)[O-])c1`, the inhibition is reported as inactive: -8.98%. For `CCc1cccc(NC(=O)Oc2c([N+](=O)[O-])cc([N+](=O)[O-])cc2[N+](=O)[O-])c1`, the inhibition was inactive: 3.97%. With `O=C(c1ccco1)N(Cc1cccnc1)C1CCN(CCc2ccc(Cl)cc2)CC1` the inhibition was inactive: 2.95%. In the case of `n1[nH]nc2c1c1n[nH]nc1c1n[nH]nc21`, the inhibition is reported as inactive: -10.2%. For `CCOc1ccc(NP2(=O)C=C(Cl)N(C)C(=O)N2C)cc1` (stereo not drawn), the inhibition was inactive: -4.06%. With `CC(C)(C)C(=O)NC(Sc1ncccn1)C(Cl)(Cl)Cl` (stereo not drawn) the inhibition was inactive: -1.81%. In the case of `CCOP(=O)(CN)OCC`, the inhibition is reported as inactive: 0.37%. In the case of `CN(CCCl)Cc1cc(Cl)c(NC2=NCCN2)c(Cl)c1`, the inhibition is reported as inactive: -6.84%. For `O=P1(Nc2ccccn2)COc2ccccc2OC1`, the inhibition was inactive: 0.96%. In the case of `O=[N+]([O-])c1cc([N+](=O)[O-])c(N2CCCCC2)c([N+](=O)[O-])c1`, the inhibition is reported as inactive: -6.18%. For `CCOc1ccc(NC(=O)c2ccc([N+](=O)[O-])cc2[N+](=O)[O-])c([N+](=O)[O-])c1`, the inhibition was inactive: 3.18%. With `COc1ccc2nc(SCc3ccc(C(=O)O)cc3)[nH]c2c1` the inhibition was inactive: 8.13%. For `CCOP(=O)(NC(=NC(C)c1ccccc1)NC(C)c1ccccc1)OCC` (stereo not drawn), the inhibition was inactive: -3.42%. In the case of `COc1cccc(OP(=O)(Nc2ccccn2)Oc2cccc(OC)c2)c1`, the inhibition is reported as inactive: 12.2%. In the case of `CC(C)OP(=O)(Nc1ccc(Br)cc1)OC(C)C`, the inhibition is reported as inactive: 11.9%. For `CC1(C)COP(=S)(N(C2=NCCC2)c2ccccc2)OC1`, the inhibition was inactive: 3.04%. For `CCCCOP(=O)(Nc1cccc(F)c1)OCCCC`, the inhibition was inactive: 2.66%. In the case of `O=C(Nc1cccc(F)c1)N(Cc1cccnc1)C1CCN(CCc2ccccn2)CC1`, the inhibition is reported as inactive: -9.4%. For `Cc1c(N=Cc2ccc([N+](=O)[O-])cc2)cc([N+](=O)[O-])cc1[N+](=O)[O-]`, the inhibition was inactive: 6.72%. For `CCSP(=O)(c1ccccc1)c1ccccc1`, the inhibition was inactive: -5.24%. For `CC(=Nc1cc([N+](=O)[O-])ccc1C)NNc1ccc([N+](=O)[O-])cc1[N+](=O)[O-]`, the inhibition was inactive: -6.43%. With `COP(=O)(OC)Oc1c(Cl)c(Cl)c(O)c(Cl)c1Cl` the inhibition was inactive: -10.7%. For `O=[N+]([O-])c1ccc(N/N=C/c2ccc([N+](=O)[O-])s2)c([N+](=O)[O-])c1`, the inhibition was inactive: 3.34%. With `O=[N+]([O-])c1ccc(NCCN(CCO)c2ccc([N+](=O)[O-])cc2[N+](=O)[O-])c(Cl)c1` the inhibition was inactive: 5.79%. In the case of `COc1cc([N+](=O)[O-])cc([N+](=O)[O-])c1OCC(=O)N/N=C/c1ccc([N+](=O)[O-])o1`, the inhibition is reported as inactive: 14.9%. For `COc1ccccc1NC1=NCC(CBr)S1` (stereo not drawn), the inhibition was inactive: -3.02%. For `O=C(/C=C/c1ccccc1)OC1CN2CCC1CC2` (stereo not drawn), the inhibition was inactive: 3.92%. With `O=C(O)C(Cl)CSc1nc2ccccc2o1` (stereo not drawn) the inhibition was inactive: -15.8%. For `CN(C)C1(CNC(=O)c2ccc(S(C)(=O)=O)cc2)CCCCC1`, the inhibition was inactive: 2.87%. For `COCCN(CCOC)C(=O)COC(=O)C(O)(c1ccccc1)c1ccccc1`, the inhibition was inactive: 8.78%. For `O=C(Cc1ccc(F)cc1)N(Cc1ccco1)C1CCN(CCc2ccccn2)CC1`, the inhibition was inactive: -0.08%. For `O=[N+]([O-])c1ccc2c(c1)/C(=N\O)c1cc([N+](=O)[O-])cc([N+](=O)[O-])c1-2`, the inhibition was inactive: -0.42%. With `Cc1n[n+]2c([nH]c1=O)SCC(Br)C2c1ccccc1` (stereo not drawn) the inhibition was inactive: 3.6%. For `N#Cc1cccc(C(=O)N(Cc2ccco2)C2CCN(CCc3ccccn3)CC2)c1`, the inhibition was inactive: 1.9%. For `Cc1nn(-c2ccccc2)c2c1P(=O)(N1CCOCC1)N(C)C(c1ccccc1)=N2` (stereo not drawn), the inhibition was inactive: -9.67%. In the case of `CC(C)NC(=O)N(Cc1cccnc1)C1CCN(CCc2ccccn2)CC1`, the inhibition is reported as inactive: -1.16%. For `CCN1C(=O)N(c2ccccc2)P(=S)(OC)c2cc3c(cc21)OCCO3` (stereo not drawn), the inhibition was inactive: -11.4%. With `Cc1cc(SC(NC=O)C(Cl)(Cl)Cl)ncn1` (stereo not drawn) the inhibition was inactive: 13.8%. In the case of `O=C(CF)NC(Sc1ccccc1)C(Cl)(Cl)Cl` (stereo not drawn), the inhibition is reported as inactive: -1.65%. In the case of `Cc1sc2nc3n(c(=O)c2c1C)CC(CI)S3` (stereo not drawn), the inhibition is reported as inactive: -6.13%. For `CC(C)OP(=O)(OC(C)C)C(=O)c1ccccc1Cl`, the inhibition was inactive: 3.18%. With `CCCCOP(=S)(CC(=O)N(CC)CC)OCCCC` the inhibition was inactive: 2.16%. With `CC(C)COP(=O)(Nc1ccc(Br)cc1)OCC(C)C` the inhibition was inactive: 12.9%. In the case of `O=[N+]([O-])c1ccc(-c2nnc(SCCCl)o2)cc1`, the inhibition is reported as inactive: 4.45%. With `CC(C)(C)C(=O)CSc1nc2ccccc2[nH]1` the inhibition was inactive: -43.1%. With `O=[N+]([O-])c1cccc(Nc2ccc([N+](=O)[O-])cc2[N+](=O)[O-])c1` the inhibition was inactive: 3.91%. In the case of `O=C(Cc1ccc(F)cc1)N(Cc1ccco1)C1CCN(CCc2cccs2)CC1`, the inhibition is reported as inactive: -6.52%. For `CC(C)OP(=O)(Nc1nc2ccccc2[nH]1)OC(C)C`, the inhibition was inactive: 6.84%. In the case of `Nc1c([N+](=O)[O-])cc([N+](=O)[O-])c(Nc2ccc(S(N)(=O)=O)cc2)c1[N+](=O)[O-]`, the inhibition is reported as inactive: 5.58%.
